Measured values as given in PubChem BioAssay AID588819 (The Scripps Research Institute Molecular Screening Center, 2011).
“And” between values parts separate entries of the source, which are not always exact repeats. Equal entries are not always repeated. The entries are a selection whose mix differs from that of the whole data set. The source made the active and inactive calls. No stated cut-off is given here; in the data, active means activation above about 19% (passing the limit was not always enough); inactive means the rest.

Chains of the proteins cited; added tags and fusions are not shown. Lines headed by an entry give the natural chain unless they say otherwise; changes in a name come on top.
UniProt P11229: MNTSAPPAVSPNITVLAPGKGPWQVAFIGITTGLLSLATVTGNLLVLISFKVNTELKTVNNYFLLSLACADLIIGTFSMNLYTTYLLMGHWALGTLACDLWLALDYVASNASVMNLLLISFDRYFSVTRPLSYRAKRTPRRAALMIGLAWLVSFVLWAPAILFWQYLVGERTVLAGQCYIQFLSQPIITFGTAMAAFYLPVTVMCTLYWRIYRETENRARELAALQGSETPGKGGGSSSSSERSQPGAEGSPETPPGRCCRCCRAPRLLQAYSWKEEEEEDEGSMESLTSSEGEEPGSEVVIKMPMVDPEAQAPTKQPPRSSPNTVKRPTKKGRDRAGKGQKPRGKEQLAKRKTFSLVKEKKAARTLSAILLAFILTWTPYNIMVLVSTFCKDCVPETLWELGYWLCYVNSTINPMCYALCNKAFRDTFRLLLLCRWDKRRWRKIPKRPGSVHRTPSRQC

Each molecule was assayed against Muscarinic acetylcholine receptor M1 (Homo sapiens) (UniProt P11229) (assay: human M1 muscarinic receptor positive allosteric modulators, primary screen, CHO-K1 cells, Fluo-8 calcium fluorescence, 1536-well (AID 588819)). Conditions: CHO-K1 hM1, Fluo-8 calcium fluorescence, ACh EC20; at 3 µM; stronger effect = higher value; 0% = ACh EC20, 100% = maximal ACh.

| SMILES | activation |
| --- | --- |
| CCCOP(=S)(Nc1nc(N)cc(=O)[nH]1)OCCC | inactive: 0.33% |
| Nc1cccc2c([As](=O)(O)O)cccc12 | inactive: -3.21% |
| Cc1ccc(NCCc2c([N+](=O)[O-])cc([N+](=O)[O-])cc2[N+](=O)[O-])cc1 | inactive: 1.01% |
| COc1ccc(C[C@H]2NC[C@H](O)[C@H]2OC(C)=O)cc1 | inactive: 3.11% |
| Cc1cccc(OCC(=O)OC2CN3CCC2CC3)c1 (centres undefined) | inactive: -18.4% |
| O=[As](O)(c1cccc(O)c1)c1cccc(O)c1 | inactive: 13.5% |
| O=[As](O)(O)c1cccnc1 | inactive: 7.44% |
| CS(=O)(=O)c1ccc(Cl)c(NC(=O)COC(=O)C(O)(c2ccccc2)c2ccccc2)c1 | inactive: -2.04% |
| O=C(OC1CN2CCC1CC2)c1ccc(Cl)cc1 (centres undefined) | inactive: -25.9% |
| O=[N+]([O-])c1ccc2c(c1)nnn2O | inactive: 2.35% |
| CN(C)C(=O)c1cc([N+](=O)[O-])cc2c1-c1c(cc([N+](=O)[O-])cc1[N+](=O)[O-])C2=O | inactive: 2.32% |
| CN(C(=O)Cc1ccc(Cl)c(Cl)c1)[C@H]1CC[C@@]2(CCCO2)C[C@@H]1N1CCCC1 | inactive: -6.05% |
| N#CCCN(C(=O)COC(=O)C(O)(c1ccccc1)c1ccccc1)c1ccc(F)cc1 | inactive: 2.51% |
| CCOP1(=S)c2c(C)nn(CCC#N)c2N=C(c2ccc(F)cc2)N1C (centres undefined) | inactive: 8.58% |
| CN(C(=O)Cc1ccccc1)[C@@H]1CC[C@]2(CCCO2)C[C@H]1N1CCCC1 | inactive: -0.25% |
| COc1ccc(CC(C)NCC(O)c2ccc(O)c(NC=O)c2)cc1 (centres undefined) | inactive: -0.9% and inactive: 4.5% |
| NC(=O)Nc1ccc([As](=O)(O)O)cc1 | inactive: -0.97% |
| Nc1ccccc1[As](=O)(O)c1ccccc1 | inactive: -0.23% |
| O=C(O)COc1ccc([As](=O)(O)O)cc1[N+](=O)[O-] | inactive: 10.2% |
| CS(=O)(=O)c1cc([N+](=O)[O-])c2no[n+]([O-])c2c1 | inactive: 6.82% |
| CCOP1(=S)c2c(C)nn(CCC#N)c2N=C(c2ccccc2F)N1C (centres undefined) | inactive: 2.53% |
| O=P(Nc1nccs1)(Oc1ccccc1)Oc1ccccc1 | inactive: -1.05% |
| O=P(Nc1nccs1)(c1ccccc1)c1nc2ccccc2s1 (centres undefined) | inactive: -1.77% |

| SMILES | activation |
| --- | --- |
| O=[As](O)(c1cccs1)c1cccs1 | inactive: 12.8% |
| Cc1ccc(OCC(=O)OC2CN3CCC2CC3)cc1 (centres undefined) | inactive: -16.5% |
| O=P1(Nc2ccc(Br)cn2)COc2ccccc2OC1 | inactive: 2.81% |
| NS(=O)(=O)c1cccc(NC(=O)COC(=O)C(O)(c2ccccc2)c2ccccc2)c1 | inactive: 15.7% |
| Nc1cccc([As](=O)(O)c2ccccc2)c1 | inactive: 0.86% |
| O=[N+]([O-])c1cc([As](=O)(O)O)ccc1O | inactive: -7.73% |
| O=P1(Nc2ncccn2)COc2ccccc2OC1 | inactive: 5.58% |
| Cc1ccc(S(=O)(=O)N(CCCN)CCCc2c(C)nc(N)[nH]c2=O)cc1 | inactive: 6.02% |
| O=C(/C=C/c1ccccc1)OC1CN2CCC1CC2 (centres undefined) | inactive: 0.1% |
| CCCC1OP(=O)(Nc2ccccc2)OCC1CC (centres undefined) | inactive: -7.78% |
| Cc1nn(-c2ccccc2)c2c1P(=O)(N1CCOCC1)N(C)C(c1ccccc1)=N2 (centres undefined) | inactive: 2.43% |
| CC1CCC(C(C)C)C(OP(=O)(Nc2ccccn2)c2ccccc2)C1 (centres undefined) | inactive: 0.27% |
| Cc1ccc(C(=O)OC2CN3CCC2CC3)cc1 (centres undefined) | inactive: -6.65% |
| CC1(CBr)Cn2c(nc3ccccc3c2=O)S1 (centres undefined) | inactive: 5.68% |
| CC(C)/C=N\N=C(\N)N[N+](=O)[O-] | inactive: 4.61% |
| CN(C(=O)Cc1ccc(Cl)c(Cl)c1)[C@@H]1CCCC[C@H]1N1CCCC1 | inactive: -1.29% |
| COc1ccccc1CNC(=O)COC(=O)C(O)(c1ccccc1)c1ccccc1 | inactive: 3.58% |
| O=P1(N(CCCl)CCCl)NCCC(C(F)(F)F)O1 (centres undefined) | inactive: 2.89% |
| Clc1n[nH]nc1-c1nn[nH][15n]1 | inactive: 12.6% |
| CC(C)(C)C(=O)NC(Sc1ncccn1)C(Cl)(Cl)Cl (centres undefined) | inactive: 2.58% |
| CCOP(=O)(Nc1ccc(C)cn1)OCC | inactive: 4.61% |
| CN(CCCl)Cc1cc(Cl)c(NC2=NCCN2)c(Cl)c1 | inactive: -2.57% |
| O=P1(Nc2ccccn2)COc2ccccc2OC1 | inactive: 11.5% |

| SMILES | activation |
| --- | --- |
| CCC1=CC2Cc3nc4ccc(Cl)cc4c(N)c3C(C1)C2 (centres undefined) | inactive: -11.4% |
| CCOP(=O)(NC(=NC(C)c1ccccc1)NC(C)c1ccccc1)OCC (centres undefined) | inactive: 7.07% |
| CCC(C)N(CC(C)C)C(=S)SC(NC(C)=O)C(Cl)(Cl)Cl (centres undefined) | inactive: 11.6% |
| CCOC(=O)c1ccc(NC(=O)C(C)(CCl)SC)cc1 (centres undefined) | inactive: 9.2% |
| O=C(OC1CN2CCC1CC2)c1cccc([N+](=O)[O-])c1 (centres undefined) | inactive: -14.1% |
| CSc1ccc(Nc2c([N+](=O)[O-])cc([N+](=O)[O-])cc2[N+](=O)[O-])cc1 | inactive: -15.5% |
| O=C(COc1ccccc1)OC1CN2CCC1CC2 (centres undefined) | inactive: -22.7% |
| O=C(Nc1ccncc1[N+](=O)[O-])c1ccc([N+](=O)[O-])cc1[N+](=O)[O-] | inactive: 4.41% |
| O=C(O)C(=O)c1ccc(N(CCCl)CCCl)cc1 | inactive: 3.6% |
| COP1(=S)c2c(C)nn(CCC#N)c2N=C(c2ccc(F)cc2)N1C (centres undefined) | inactive: -3.11% |
| COC(=O)C1(C)COP(=O)(N2CCCC2)OC1 (centres undefined) | inactive: 10.4% |
| O=[N+]([O-])c1ccc(Nc2ccc(Oc3ccc([N+](=O)[O-])cc3[N+](=O)[O-])cc2)c([N+](=O)[O-])c1 | inactive: -2.83% |
| O=P(Nc1ccccn1)(c1cccc2ccccc12)c1cccc2ccccc12 | inactive: 12.1% |
| Cc1cc(SC(NC=O)C(Cl)(Cl)Cl)ncn1 (centres undefined) | inactive: 17.8% |
| CCOC(=O)Nc1cccc([As](=O)(O)O)c1 | inactive: 18.8% |
| Cc1cc(SC(NC(=O)c2ccccc2)C(Cl)(Cl)Cl)nc(C(C)C)n1 (centres undefined) | inactive: 3.01% |
| COP(=O)(OC)N1CC1c1ccccc1 (centres undefined) | inactive: 5.22% |
| CC1CCNP(=O)(N(CCCl)CCCl)O1 (centres undefined) | inactive: -0.17% |
| C/C=C1/CC(C)C(C)(O)C(=O)OCC2CCN3CCC(OC1=O)C23 (centres undefined) | inactive: -26.2% |
| CCOC(=O)Nc1ccc([As](=O)(O)O)c(O)c1 | inactive: 5.57% |
| O=C(O)C(O)c1ccc(N(CCCl)CCCl)cc1 (centres undefined) | inactive: 0.22% |
| CC(C)NC(=O)NP(=O)(Oc1ccccc1)Oc1ccccc1 | inactive: 11.7% |
| O=C(OC1CN2CCC1CC2)c1cccc2[nH]cnc12 (centres undefined) | inactive: 11.6% |

| SMILES | activation |
| --- | --- |
| CCN(CC)C(=S)SC(NC=O)C(Cl)(Cl)Cl (centres undefined) | inactive: -4.2% |
| O=[N+]([O-])c1cc([N+](=O)[O-])c(-c2ccn[nH]2)s1 | inactive: 0.36% |
| COC(=O)C1(C)COP(=O)(N2CCCCCC2)OC1 (centres undefined) | inactive: 6.3% |
| CC(C)c1ccc(OP(=O)(Nc2ccccn2)Oc2ccccc2F)cc1 (centres undefined) | inactive: 9.77% |
| ClCCSc1nnc(-c2cccnc2)o1 | inactive: 9.38% |
| Cc1ccc2nc3c(c(C)c2c1)CC(C(Cl)Cl)S3 (centres undefined) | inactive: 1.76% |
| Cc1ccc(OP(=O)(Nc2ccc([N+](=O)[O-])cn2)Oc2ccc(C)cc2)cc1 | inactive: 8.27% |
| CC(Cc1ccc(O)cc1)NCC(O)c1cc(O)cc(O)c1 (centres undefined) | inactive: 0.04% |
| C[As](=O)(O)c1cccc(C(=O)O)c1 | inactive: 2.92% |
| O=[As](O)(c1ccc(O)cc1)c1ccccc1O | inactive: 2.81% |
| O=[N+]([O-])c1ccc(-c2cc([N+](=O)[O-])c(O)c([N+](=O)[O-])c2)cc1 | inactive: 2.94% |
| COc1ccc(N/C(=N/P(=O)(N2CCOCC2)N2CCOCC2)N2CCOCC2)cc1 | inactive: 6.07% |
| O=[N+]([O-])c1cc(Oc2ccc([N+](=O)[O-])cc2C(F)(F)F)cc([N+](=O)[O-])c1 | inactive: 0.77% |
| COc1ccc2nc(NP(=O)(c3ccccc3)c3ccccc3)sc2c1 | inactive: -4.26% |
| COc1cc(I)ccc1[As](=O)(O)O | inactive: -1.19% |
| O=P1(N(CCCl)CCCl)Nc2ccccc2N1 | inactive: 4.55% |
| O=P1(N(CCCl)CCCl)OCCCN1CCCl (centres undefined) | inactive: 2.89% |
| O=C(OC1CN2CCC1CC2)C12CC3CC(CC(C3)C1)C2 (centres undefined) | inactive: -20.9% |
| Cc1cc(=O)[nH]c(N[N+](=O)[O-])n1 | inactive: 16.3% |
| Cc1c2c(nc3ccccc13)SC(C(Cl)Cl)C2 (centres undefined) | inactive: 8% |
